{
  "source": "patent US7833698B2",
  "about": "“Method for determining the response to cancer therapy” (Ventana Medical Systems, Inc., priority 2000, dated 2010)",
  "system": "patient tumor tissue (metastatic disease)",
  "experiment": "SA-β-Gal quantitation in patient tumor sections after Herceptin treatment (image analysis)",
  "format": "in vivo, human",
  "procedure": "Cells were washed in PBS, fixed for 3-5 minutes at room temperature in 2% formaldehyde and 0.2% glutaraldehyde (or in 3% formaldehyde alone), washed, and incubated at 37° C. in fresh senescence-associated β-Gal (SA-β-Gal) staining solution (1 mg/ml 5-bromo-4-chloro-3-indolyl β-D-galactoside (X-Gal), 20 mg/ml dimethylformamide; 40 mM citric acid/sodium phosphate, pH 6.0; 5 mM potassium ferrocyanide; 5 mM potassium ferricyanide; 150 mM NaCl; 2 mM MgCl2. Staining was evident following 2-4 hours of incubation and maximal staining was reached after in 12-16 hours. To detect lysosomal β-Gal, the staining solution was prepared with citric acid/sodium phosphate at pH 4.0 (Baselga et al., 1999, Proceedings of AACR NCI EORTC International Conference, Abstract 98).\nRed and green filters are suitable for practice of the invention. For SA-β-Gal, a green filter (500 nm) is used to determine the total cytoplasmic area stained with red eosin and compared with the blue area stained for SA-β-Gal (600 nm) as determined using a red filter. […] It is recognized that there are various other staining or optical enhancement methods and filtering methods which can be used to optically enhance one particular area or feature over another cell feature (such as Fast green and eosin).\nFrozen tumor sections were fixed and then stained for SA-β-Gal expression. SA-β-Gal^+ cells were quantitated using bright-field microscopy and image analysis. Tissues were obtained from a patient receiving only Herceptin™. The first needle biopsy was obtained from the metastatic disease before initiation of Herceptin™ therapy. On day 1 the patient received 4 mg/1 g.v Herceptin™ for 10 minutes. A second biopsy was taken on day 2, 24 hours after the patient received a second Herceptin™ treatment. A third biopsy was taken on day 14, 24 hours after the patient received a third dose of Herceptin™.",
  "data": [
    {"substance": "Herceptin: a monoclonal antibody to the oncogenic receptor HER-2/neu", "values": [
      {"measurement": "Percentage of Cells Expressing SA-β-Gal in Patient Tissue After Herceptin Treatment", "setting": "Day 2 biopsy, 24 hours after second Herceptin treatment", "result": 1.5, "unit": "%"},
      {"measurement": "Percentage of Cells Expressing SA-β-Gal in Patient Tissue After Herceptin Treatment", "setting": "Day 14 biopsy, 24 hours after third dose of Herceptin", "result": 26, "unit": "%"},
      {"measurement": "Cellular outcome of Herceptin treatment", "setting": "SA-β-Gal+ cells having the morphological features of senescence", "result": "resulted in senescence and blocks at G1, G2, and G2M"}
    ]}
  ]
}
